# Source: patent US7488745B2, “Compounds for the treatment of inflammatory disorders” (Schering Corporation, priority 2004, dated 2009)
# Protein sequences, listed by entry. Tags and fused reporters are not part of them. Residues count along the entry.
# UniProt P78536, 215-477 S266A/N452Q limits assumed: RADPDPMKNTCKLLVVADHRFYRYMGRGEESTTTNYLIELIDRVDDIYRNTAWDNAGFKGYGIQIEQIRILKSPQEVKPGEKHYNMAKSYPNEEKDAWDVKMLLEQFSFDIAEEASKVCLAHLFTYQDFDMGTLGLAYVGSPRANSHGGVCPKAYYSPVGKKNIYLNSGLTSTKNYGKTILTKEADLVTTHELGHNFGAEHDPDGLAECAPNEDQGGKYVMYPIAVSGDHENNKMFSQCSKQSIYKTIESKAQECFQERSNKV
# Molecular target: purified catalytic domain of recombinant human TACE (rhTACEc) (Homo sapiens, UniProt P78536, N452Q/S266A)
# Experiment: TACE kinetic assay: cleavage of internally quenched peptide substrate SPDL-3 (fluorescence)
# Conditions: for pKi: Ki Rating, TACE inhibitory activity, Table 3000; for Ki: Ki (nM), Specific TACE inhibitory activity (Ki values)
SMILES,pKi,Ki [nM]
CC#CCOc1ccc2c(c1)C(=O)N(C[C@@]1(c3ccc(-c4ccccn4)s3)NC(=O)NC1=O)C2 [Compound 3011],> 8.00,–
Cc1ccc2cc(-c3ccc([C@@]4(CN5Cc6ccc(F)cc6C5=O)NC(=O)NC4=O)cc3)ccc2n1 [Compound 3012],< 6.00,–
Cc1ccc2cc(-c3ccc([C@]4(CN5Cc6ccc(F)cc6C5=O)NC(=O)NC4=O)cc3)ccc2n1 [Compound 3013],> 8.00,–
O=C1NC(=O)[C@](CN2Cc3ccc(OCC#CC4CC4)cc3C2=O)(c2ccc(-c3cccc4cccnc34)cc2)N1 [Compound 3014],7.00 to 8.00,–
COc1ccc2c(c1)C(=O)N(C[C@@]1(c3ccc(-c4c(C)n[nH]c4C)cc3)NC(=O)NC1=O)C2 [Compound 3015],> 8.00,–
COc1ccc2c(c1)C(=O)N(C[C@@]1(c3ccc(-c4c(C)noc4C)cc3)NC(=O)NC1=O)C2 [Compound 3016],> 8.00,–
COc1ccc2c(c1)C(=O)N(C[C@@]1(c3ccc(-c4cc(C(F)(F)F)cc5nc[nH]c45)cc3)NC(=O)NC1=O)C2 [Compound 3017],7.00 to 8.00,–
COc1ccc2c(c1)C(=O)N(C[C@]1(c3ccc(-c4cnn(C)c4C(F)(F)F)cc3)NC(=O)NC1=O)C2 [Compound 3018],7.00 to 8.00,–
COc1ccc2c(c1)C(=O)N(C[C@@]1(c3ccc(-c4cnn(-c5ccccc5)c4C)cc3)NC(=O)NC1=O)C2 [Compound 3019],> 8.00,–
COc1ccc2c(c1)C(=O)N(C[C@@]1(c3ccc(-c4cc(C(F)(F)F)cc5c4ncn5C(C)C)cc3)NC(=O)NC1=O)C2 [Compound 3020],7.00 to 8.00,–
Cc1nc(-c2cccc(-c3ccc([C@@]4(CN5Cc6ccc(F)cc6C5=O)NC(=O)NC4=O)cc3)c2)cs1 [Compound 3021],< 6.00,–
Cc1nc(-c2cccc(-c3ccc([C@]4(CN5Cc6ccc(F)cc6C5=O)NC(=O)NC4=O)cc3)c2)cs1 [Compound 3022],7.00 to 8.00,–
O=C1NC(=O)C(Cc2ccncc2)(CN2Cc3ccc(F)cc3C2=O)N1 (centres unmarked) [Compound 3023],< 6.00,–
O=C1NC(=O)[C@@](CN2Cc3ccc(F)cc3C2=O)(c2ccc(-c3ccc(-c4ccccn4)s3)cc2)N1 [Compound 3024],6.00 to 7.00,–
O=C1NC(=O)[C@](CN2Cc3ccc(F)cc3C2=O)(c2ccc(-c3ccc(-c4ccccn4)s3)cc2)N1 [Compound 3025],7.00 to 8.00,–
O=C1NC(=O)[C@](CN2Cc3ccc(F)cc3C2=O)(c2ccc(-c3cc(-c4ccccc4)no3)cc2)N1 [Compound 3026],7.00 to 8.00,–
Cn1cnc2c(-c3ccc([C@@]4(CN5Cc6ccc(F)cc6C5=O)NC(=O)NC4=O)cc3)ncnc21 [Compound 3027],< 6.00,–
O=C1NC(=O)[C@@](CN2Cc3ccc(F)cc3C2=O)(c2ccc(-c3ccc4ncsc4c3)cc2)N1 [Compound 3028],6.00 to 7.00,–
Cn1cnc2c(-c3ccc([C@]4(CN5Cc6ccc(F)cc6C5=O)NC(=O)NC4=O)cc3)ncnc21 [Compound 3029],> 8.00,–
O=C1NC(=O)[C@](CN2Cc3ccc(F)cc3C2=O)(c2ccc(-c3ccc4ncsc4c3)cc2)N1 [Compound 3030],> 8.00,–
Cc1nn(C)c(C)c1-c1ccc([C@]2(CN3Cc4ccc(F)cc4C3=O)NC(=O)NC2=O)cc1 [Compound 3031],> 8.00,–
COc1ccc2c(c1)C(=O)N(C[C@@]1(c3ccc(-c4ncnc5c4ncn5C)cc3)NC(=O)NC1=O)C2 [Compound 3032],> 8.00,–
COc1ccc2c(c1)C(=O)N(C[C@@]1(c3ccc(-c4c(C)nn(C)c4C)cc3)NC(=O)NC1=O)C2 [Compound 3033],> 8.00,–

SMILES,pKi,Ki [nM]
COc1ccc2c(c1)C(=O)N(C[C@@]1(c3ccc(-c4ccc(-c5ccccn5)s4)cc3)NC(=O)NC1=O)C2 [Compound 3034],> 8.00,–
CC#CCOc1ccc2c(c1)C(=O)N(C[C@@]1(c3ccc(-c4c(C)nn(C)c4C)cc3)NC(=O)NC1=O)C2 [Compound 3035],> 8.00,–
CC#CCOc1ccc2c(c1)C(=O)N(C[C@]1(c3ccc(-c4c(C)nn(C)c4C)cc3)C(=O)NC(=O)N1CC#CC)C2 [Compound 3037],> 8.00,–
COc1ccc2c(c1)C(=O)N(C[C@@]1(c3ccc(-c4ncnc5ncn(CC6CC6)c45)cc3)NC(=O)NC1=O)C2 [Compound 3038],> 8.00,–
COc1ccc2c(c1)C(=O)N(C[C@@]1(c3ccc(-c4ncnc5c4ncn5C(C)C)cc3)NC(=O)NC1=O)C2 [Compound 3039],> 8.00,–
COc1ccc2c(c1)C(=O)N(C[C@@]1(c3ccc(-c4ncnc5ncn(C(C)C)c45)cc3)NC(=O)NC1=O)C2 [Compound 3040],> 8.00,–
Cc1nn(C)c(C)c1-c1ccc([C@]2(CN3Cc4ccc(OCC#CCO)cc4C3=O)NC(=O)NC2=O)cc1 [Compound 3041],> 8.00,1.44
COc1ccc2c(c1)C(=O)N(C[C@]1(c3ccc(-c4ccc(-c5csc(N)n5)cc4)cc3)NC(=O)NC1=O)C2 [Compound 3043],6.00 to 7.00,–
COc1ccc2c(c1)C(=O)N(C[C@@]1(c3ccc(-c4ccc(-c5csc(N)n5)cc4)cc3)NC(=O)NC1=O)C2 [Compound 3044],> 8.00,–
CC#CCOc1ccc2c(c1)C(=O)N(C[C@@]1(c3ccc(-c4ncnc5c4ncn5CC4CC4)cc3)NC(=O)NC1=O)C2 [Compound 3045],> 8.00,–
CC#CCOc1ccc2c(c1)C(=O)N(C[C@@]1(c3ccc(-c4ncnc5c4ncn5C(C)C)cc3)NC(=O)NC1=O)C2 [Compound 3046],> 8.00,–
Cn1cnc2c(-c3ccc([C@]4(CN5Cc6ccc(OC(F)F)cc6C5=O)NC(=O)NC4=O)cc3)ncnc21 [Compound 3048],> 8.00,–
O=C1NC(=O)[C@](CN2Cc3ccc(Cl)cc3C2=O)(c2ccc(-c3cnccn3)cc2)N1 [Compound 4001],> 8.00,–
O=C1NC(=O)C(CN2Cc3ccc(F)cc3C2=O)(c2ccc(F)cc2F)N1 (centres unmarked) [Compound 4002],> 8.00,–
O=C1NC(=O)C(CN2Cc3ccc(F)cc3C2=O)(c2ccc(C(F)(F)F)cc2)N1 (centres unmarked) [Compound 4003],> 8.00,–
O=C1NC(=O)[C@](CN2Cc3cc(OCC4CCC4)ccc3C2=O)(c2ccc(F)cc2)N1 [Compound 4004],> 8.00,–
O=C1NC(=O)[C@](CN2Cc3cc(OCc4cccnc4)ccc3C2=O)(c2ccc(F)cc2)N1 [Compound 4005],> 8.00,–
O=C1NC(=O)C(CN2Cc3ccc(Cl)cc3C2=O)(c2cccc(F)c2)N1 (centres unmarked) [Compound 4006],6.00 to 7.00,–
O=C1NC(=O)[C@](CN2Cc3cc(OCc4ccc(-n5cncn5)nc4)ccc3C2=O)(c2ccc(F)cc2)N1 [Compound 4007],> 8.00,–
CC(C)(C)CCOc1ccc2c(c1)CN(C[C@@]1(c3ccc(F)cc3)NC(=O)NC1=O)C2=O [Compound 4008],7.00 to 8.00,–
O=C1NC(=O)[C@](CN2Cc3ccc(O)cc3C2=O)(c2ccc(-c3cnccn3)cc2)N1 [Compound 4009],7.00 to 8.00,–
O=C1NC(=O)[C@](CN2Cc3ccc(OCC#CCO)cc3C2=O)(c2ccc(-c3cnccn3)cc2)N1 [Compound 4010],> 8.00,–
O=C1NC(=O)[C@@](CN2Cc3ccc(OCC#CCO)cc3C2=O)(c2ccc(-c3cnccn3)cc2)N1 [Compound 4011],6.00 to 7.00,–

SMILES,pKi,Ki [nM]
CC#CCOc1ccc2c(c1)C(=O)N(C[C@@]1(c3ccc(-c4cnccn4)cc3)NC(=O)NC1=O)C2 [Compound 4012],> 8.00,0.5
CC#CCOc1ccc2c(c1)C(=O)N(C[C@@]1(c3ccc(-c4ccc(F)cn4)cc3)NC(=O)NC1=O)C2 [Compound 4014],> 8.00,–
O=C1NC(=O)[C@](CN2Cc3ccc(OCC#CCO)cc3C2=O)(c2ccc(-c3cccnc3)cc2)N1 [Compound 4015],> 8.00,–
COc1ccc2c(c1)C(=O)N(CC1(c3ccc(C(F)(F)F)cc3)NC(=O)NC1=O)C2 (centres unmarked) [Compound 4016],> 8.00,–
CC#CCOc1ccc2c(c1)C(=O)N(C[C@@]1(c3ccc(-c4cccnc4O)cc3)NC(=O)NC1=O)C2 [Compound 4017],> 8.00,–
CC#CCOc1ccc2c(c1)C(=O)N(C[C@@]1(c3ccc(-c4cc(C)ccn4)cc3)NC(=O)NC1=O)C2 [Compound 4018],> 8.00,–
Cc1onc(N)c1-c1ccc([C@@]2(CN3Cc4ccc(O)cc4C3=O)NC(=O)NC2=O)cc1 [Compound 4019],6.00 to 7.00,–
COc1ccc2c(c1)C(=O)N(C[C@@]1(c3ccc(-c4ccc(F)cc4)cc3)NC(=O)NC1=O)C2 [Compound 4020],> 8.00,–
COc1ccc2c(c1)C(=O)N(C[C@@]1(c3ccc(-c4nc5ccccc5s4)cc3)NC(=O)NC1=O)C2 [Compound 4021],> 8.00,–
COc1ccc2c(c1)C(=O)N(C[C@@]1(c3ccc(-c4ccc(C)cn4)cc3)NC(=O)NC1=O)C2 [Compound 4022],> 8.00,–
COc1ccc2c(c1)C(=O)N(C[C@@]1(c3ccc(-c4c(N)noc4C)cc3)NC(=O)NC1=O)C2 [Compound 4023],> 8.00,–
COc1ccc2c(c1)C(=O)N(C[C@@]1(c3ccc(-c4cncc(C#N)c4)cc3)NC(=O)NC1=O)C2 [Compound 4024],> 8.00,–
COc1cncc(-c2ccc([C@]3(CN4Cc5ccc(OC)cc5C4=O)NC(=O)NC3=O)cc2)c1 [Compound 4025],> 8.00,0.84
COc1ccc2c(c1)C(=O)N(C[C@@]1(c3ccc(-c4ccc(C(F)(F)F)cn4)cc3)NC(=O)NC1=O)C2 [Compound 4026],> 8.00,–
CCOc1ccc2c(c1)C(=O)N(C[C@@]1(c3ccc(-c4cnccn4)cc3)NC(=O)NC1=O)C2 [Compound 4027],> 8.00,–
O=C1NC(=O)[C@](CN2Cc3ccc(OCC(F)(F)F)cc3C2=O)(c2ccc(-c3cnccn3)cc2)N1 [Compound 4028],7.00 to 8.00,–
COc1ccc2c(c1)C(=O)N(C[C@@]1(c3ccc(-c4cccc(F)c4)cc3)NC(=O)NC1=O)C2 [Compound 4030],> 8.00,–
COc1ccc2c(c1)CN(C[C@@]1(c3ccc(-c4cnccn4)cc3)NC(=O)NC1=O)C2=O [Compound 4031],> 8.00,–
COc1ccc2c(c1)C(=O)N(C[C@@]1(c3ccc(-c4c(N)n[nH]c4C(F)(F)F)cc3)NC(=O)NC1=O)C2 [Compound 4032],> 8.00,–
COc1ccc2c(c1)C(=O)N(C[C@@]1(c3ccc(-c4nc(N)cc5ccccc45)cc3)NC(=O)NC1=O)C2 [Compound 4033],> 8.00,–
COc1ccc2c(c1)C(=O)N(C[C@]1(c3ccc(-c4nc(N)cc5ccccc45)cc3)NC(=O)NC1=O)C2 [Compound 4034],7.00 to 8.00,–
COc1ccc2c(c1)C(=O)N(C[C@@]1(c3ccc(-c4cccc(C)n4)cc3)NC(=O)NC1=O)C2 [Compound 4035],> 8.00,–

# pKi: −log10 of the molar value.
